Results from patent publication US20120121591A1 (priority 2009, published 2012).

Amino acid sequences for entries named in this document (tags omitted).
UniProt P22001, whole entry: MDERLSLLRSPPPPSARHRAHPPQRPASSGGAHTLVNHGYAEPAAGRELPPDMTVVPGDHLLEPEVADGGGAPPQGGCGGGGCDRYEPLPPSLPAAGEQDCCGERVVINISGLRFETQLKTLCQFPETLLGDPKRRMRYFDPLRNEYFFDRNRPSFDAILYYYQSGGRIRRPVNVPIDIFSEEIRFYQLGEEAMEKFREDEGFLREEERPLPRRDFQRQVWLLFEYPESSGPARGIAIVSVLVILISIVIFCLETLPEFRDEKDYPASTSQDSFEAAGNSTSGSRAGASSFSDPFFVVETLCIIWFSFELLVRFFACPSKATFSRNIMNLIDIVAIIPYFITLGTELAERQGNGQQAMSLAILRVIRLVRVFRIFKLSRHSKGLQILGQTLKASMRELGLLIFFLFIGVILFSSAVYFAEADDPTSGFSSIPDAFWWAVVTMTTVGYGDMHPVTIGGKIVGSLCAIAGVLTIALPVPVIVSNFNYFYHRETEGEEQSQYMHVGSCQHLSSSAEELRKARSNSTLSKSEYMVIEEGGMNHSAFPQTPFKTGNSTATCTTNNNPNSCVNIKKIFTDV
UniProt Q09470, whole entry: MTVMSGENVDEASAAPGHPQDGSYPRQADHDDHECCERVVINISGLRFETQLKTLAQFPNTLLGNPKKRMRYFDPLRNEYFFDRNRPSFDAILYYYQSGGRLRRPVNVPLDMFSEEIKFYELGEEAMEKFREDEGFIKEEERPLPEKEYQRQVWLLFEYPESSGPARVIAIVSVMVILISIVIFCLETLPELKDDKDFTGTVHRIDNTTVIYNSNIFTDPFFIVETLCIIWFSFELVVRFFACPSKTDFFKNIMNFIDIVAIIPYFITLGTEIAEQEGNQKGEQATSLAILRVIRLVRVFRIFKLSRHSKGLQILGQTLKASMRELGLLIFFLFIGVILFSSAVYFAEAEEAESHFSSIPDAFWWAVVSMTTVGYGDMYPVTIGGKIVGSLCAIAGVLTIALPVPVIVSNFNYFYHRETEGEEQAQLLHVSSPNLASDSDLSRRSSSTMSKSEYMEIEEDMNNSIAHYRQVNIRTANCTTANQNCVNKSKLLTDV

How the values were obtained:
[1] = rat, in vivo, sc, cited from earlier work
hKv1.3 = hKv1.3 (Homo sapiens, UniProt P22001); test: cell-based; conditions: Kv1.3 (IWQ) IC50 (nM, Avg)
hKv1.1 = hKv1.1 (Homo sapiens, UniProt Q09470); test: cell-based; conditions: Kv1.1 (IWQ) IC50 (nM, Avg)
[2] = system: IFN-g secretion from T cells in human whole blood; format: cell-based; conditions: read-out: WB (IFNg) IC50 (nM, Avg)
[3] = system: IL-2 secretion from T cells in human whole blood; format: cell-based; conditions: read-out: WB (IL-2) IC50 (nM, Avg)
[4] = system: human CD34-derived mast cells
[5] = system: mouse peritoneal mast cells

**Q.** For CC[C@H](C)[C@@H]1NC(=O)[C@@H](NC(=O)[C@H](CO)NC(=O)[C@H](CCCNC(=N)N)NC(=O)COCCOCCNC(=O)[C@@H](N)Cc2ccc(OP(=O)(O)O)cc2)CSSC[C@@H](C(=O)O)NC(=O)[C@H]([C@@H](C)O)NC(=O)CNC(=O)[C@@H]2CSSC[C@@H]3NC(=O)[C@H](CCC(N)=O)NC(=O)[C@H](Cc4ccccc4)NC(=O)[C@H](C)NC(=O)[C@H]([C@@H](C)O)NC(=O)[C@H](CSSC[C@H](NC(=O)[C@H](Cc4ccccc4)NC(=O)[C@H](CO)NC(=O)[C@H](CC(C)C)NC(=O)[C@H](CCCNC(=N)N)NC(=O)[C@H](Cc4ccc(O)cc4)NC(=O)[C@H](CCCCN)NC(=O)[C@H](CCSC)NC(=O)[C@H](CO)NC(=O)[C@H](Cc4cnc[nH]4)NC(=O)[C@H](CCCCN)NC3=O)C(=O)N[C@@H](CCCNC(=N)N)C(=O)N[C@@H](CCCCN)C(=O)N[C@@H]([C@@H](C)O)C(=O)N2)NC(=O)[C@H](CCCNC(=N)N)NC(=O)[C@H](CO)NC(=O)[C@H](CCCCN)NC(=O)[C@@H]2CCCN2C(=O)[C@H]([C@@H](C)CC)NC(=O)[C@H]([C@@H](C)O)NC(=O)[C@H](CC(=O)O)NC1=O [ShK-L5], which AUC0-inf ([1]; 0.2 mg/kg) is on record?
**A.** 97

**Q.** And the AUC0-t ([1]; 0.2 mg/kg)?
**A.** 93 ng·h/mL

**Q.** What about the “DNAUC (0-inf)” value ([1]; 0.2 mg/kg) of the same compound?
**A.** 487

**Q.** And the MRT ([1]; 0.2 mg/kg)?
**A.** 2 h

**Q.** And the Circulating half-life [1]?
**A.** about 50 min

**Q.** For CCCC[C@@H]1NC(=O)[C@H](CO)NC(=O)[C@H](Cc2c[nH]cn2)NC(=O)[C@H](CCCCN)NC(=O)[C@@H]2CSSC[C@@H]3NC(=O)[C@H]([C@@H](C)O)NC(=O)[C@H](CCCCN)NC(=O)[C@H](CCCNC(=N)N)NC(=O)[C@H](CSSC[C@H](NC(=O)[C@H](CCCNC(=N)N)NC(=O)[C@H](CO)NC(=O)[C@H](CCCCN)NC(=O)[C@@H]4CCCN4C(=O)[C@H]([C@@H](C)CC)NC(=O)[C@H]([C@@H](C)O)NC(=O)[C@H](CC(=O)O)NC(=O)[C@H]([C@@H](C)CC)NC(=O)[C@@H](NC(=O)[C@H](CO)NC(=O)[C@H](CCCNC(=N)N)NC(=O)COCCOCCNC(=O)[C@@H](N)Cc4ccc(OP(=O)(O)O)cc4)CSSC[C@@H](C(N)=O)NC(=O)[C@H]([C@@H](C)O)NC(=O)CNC3=O)C(=O)N[C@@H]([C@@H](C)O)C(=O)N[C@@H](C)C(=O)N[C@@H](Cc3ccccc3)C(=O)N[C@@H](CCC(N)=O)C(=O)N2)NC(=O)[C@H](Cc2ccccc2)NC(=O)[C@H](CO)NC(=O)[C@H](CC(C)C)NC(=O)[C@H](CCCNC(=N)N)NC(=O)[C@H](Cc2ccc(O)cc2)NC(=O)[C@H](CCCCN)NC1=O [[Nle21]ShK(L5)-amide, reference compound], which IC50 (hKv1.3) is on record?
**A.** 0.17 nM

**Q.** And the IC50 (hKv1.1)?
**A.** 0.03 nM

**Q.** And the IC50 [2]?
**A.** 0.492 nM

**Q.** Which IC50 (hKv1.3) does the source give for CC[C@H](C)[C@@H]1NC(=O)[C@@H](NC(=O)[C@H](CO)NC(=O)[C@@H](N)CCCNC(=N)N)CSSC[C@@H](C(=O)O)NC(=O)[C@H]([C@@H](C)O)NC(=O)CNC(=O)[C@@H]2CSSC[C@@H]3NC(=O)[C@H](CCC(N)=O)NC(=O)[C@H](Cc4ccccc4)NC(=O)[C@H](C)NC(=O)[C@H]([C@@H](C)O)NC(=O)[C@H](CSSC[C@H](NC(=O)[C@H](Cc4ccccc4)NC(=O)[C@H](Cc4cccc5ccccc45)NC(=O)[C@H](CC(C)C)NC(=O)[C@H](CCCNC(=N)N)NC(=O)[C@H](Cc4ccc(O)cc4)NC(=O)[C@H](CCCCN)NC(=O)[C@H](CCSC)NC(=O)[C@H](CO)NC(=O)[C@H](Cc4c[nH]cn4)NC(=O)[C@H](CCCCN)NC3=O)C(=O)N[C@@H](CCCNC(=N)N)C(=O)N[C@@H](CCCCN)C(=O)N[C@@H]([C@@H](C)O)C(=O)N2)NC(=O)[C@H](CCCNC(=N)N)NC(=O)[C@H](CO)NC(=O)[C@H](CCCCN)NC(=O)[C@@H]2CCCN2C(=O)[C@H]([C@@H](C)CC)NC(=O)[C@H]([C@@H](C)O)NC(=O)[C@H](CC(=O)O)NC1=O [[1-Nal26]ShK] here?
**A.** 0.352 nM

**Q.** What about the IC50 [3] of the same compound?
**A.** 0.357 nM

**Q.** And the IC50 [2]?
**A.** 0.573 nM

**Q.** With CCCC[C@@H]1NC(=O)[C@H](CO)NC(=O)[C@H](Cc2c[nH]cn2)NC(=O)[C@H](CCCCN)NC(=O)[C@@H]2CSSC[C@@H]3NC(=O)[C@H]([C@@H](C)O)NC(=O)[C@H](CCCCN)NC(=O)[C@H](CCCNC(=N)N)NC(=O)[C@H](CSSC[C@H](NC(=O)[C@H](CCCNC(=N)N)NC(=O)[C@H](CO)NC(=O)[C@H](CCCCN)NC(=O)[C@@H]4CCCN4C(=O)[C@H]([C@@H](C)CC)NC(=O)[C@H]([C@@H](C)O)NC(=O)[C@H](CC(=O)O)NC(=O)[C@H]([C@@H](C)CC)NC(=O)[C@@H](NC(=O)[C@H](CO)NC(=O)[C@H](CCCNC(=N)N)NC(=O)COCCOCCNC(=O)[C@@H](N)Cc4ccc(P(=O)(O)O)cc4)CSSC[C@@H](C(N)=O)NC(=O)[C@H]([C@@H](C)O)NC(=O)CNC3=O)C(=O)N[C@@H]([C@@H](C)O)C(=O)N[C@@H](C)C(=O)N[C@@H](Cc3ccccc3)C(=O)N[C@@H](CCC(N)=O)C(=O)N2)NC(=O)[C@H](Cc2ccccc2)NC(=O)[C@H](CO)NC(=O)[C@H](CC(C)C)NC(=O)[C@H](CCCNC(=N)N)NC(=O)[C@H](Cc2ccc(O)cc2)NC(=O)[C@H](CCCCN)NC1=O [ShK-192] as the compound, how does the “Degranulation / histamine release of human CD34-derived mast cells” value [4] read?
**A.** did not degranulate

**Q.** And the “Degranulation / histamine release of mouse peritoneal mast cells” value [5]?
**A.** did not degranulate
